From US20080033005A1, “METHODS FOR THE TREATMENT OF MULTIPLE SCLEROSIS” (AVENTIS PHARMACEUTICALS INC., priority 2004, published 2008)

How the values were obtained:
mature oligodendrocytes = experiment: Oligodendrocyte toxicity assay, mature oligodendrocytes (OL), SIN-1, LDH release; assay type: cell-based, rat; details: compound 10 nm, 1 hour pretreatment, Sin-1 10 mM, LDH after 24 hours
Protocol: (§1) Primary rat oligodendrocyte progenitor cells were obtained from the cerebra of 2-3 day old postnatal rats (Sprague Dawley). The meninges were removed and tissue was mechanically dissociated. Cells were plated on T75 flasks and fed with DMEM+10% FBS.
(§2) Enriched OLPs were collected by mechanical separation from the astrocytic monolayer and were expanded in serum free media (SFM) supplemented with the mitogens, PDGF-AA (10 ng/ml) and FGF-2 (10 ng/ml).
To generate mature oligodendrocytes, progenitor cells were switched to SFM supplemented with IGF-1 (10 ng/ml) 24 hours after plating and cells were grown under these conditions for 7 days prior to experimental assays.
(§3) Cells were plated in 96-well plates, 10,000 per well. Medium was changed to fresh medium and cells were pretreated with compounds for 1 hour. Toxins were added to give the following final concentrations: • Sin-1 10 mM • Pyrogallol 500 μM • C2 ceramide 100 μM • Camptothecin 10 μM
(§4) Results were calculated as percent protection against toxin-induced toxicity.

[1] = test system: Primary rat oligodendrocyte progenitor cells; experiment: Oligodendrocyte toxicity assay, progenitor cells (OLP), SIN-1, LDH release; assay type: cell-based; details: compound 10 nm, 1 hour pretreatment; Sin-1 10 mM; LDH after 24 hours; oligodendrocyte progenitors
Protocol: as §1, §2, §3, §4

With `O=C(c1ccc(OCCN2CCCCC2)cc1)c1c2n(c3cc(O)ccc13)CCc1cc(O)ccc1-2` [5,6-dihydro-3,9-dihydroxyindolo[2,1-a]isoquinolin-12-yl)[4-[2-(1-piperidinyl)ethoxy]phenyl]-methanone] the “% Protection (SIN-1*) OL 10 nm” value (mature oligodendrocytes) was >30% and the “% Protection (SIN-1*) OLP 10 nm” value [1] was 6.049%.
